What was measured:
[1] = target: T1, P2X7 (Homo sapiens (Human), UniProt Q99572); assay: Radioligand binding, human P2X7-1321N1 cell membranes, tritiated A-804598 tracer; conditions: 1 hour at 4° C.
Protocol: (B) Radioligand binding: human or rat P2X7-1321N1 cells were collected and frozen @ −80° C. On the day of the experiment, cell membrane preparations were made according to standard published methods. […] The compound can be prepared as described in the literature. […] The assay was terminated by filtration (GF/B filters pre-soaked with 0.3% PEI) and washed with washing buffer (Tris-HCl 50 mM). The IC50 generated in the binding assay was corrected for tracer concentration and affinity of the tracer to derive at the affinity (Ki) of the test compounds.

Protein sequences, listed by entry. Tags and fused reporters are not part of them. Lines headed by an entry give the natural chain unless they say otherwise; changes in a name come on top.
UniProt Q99572: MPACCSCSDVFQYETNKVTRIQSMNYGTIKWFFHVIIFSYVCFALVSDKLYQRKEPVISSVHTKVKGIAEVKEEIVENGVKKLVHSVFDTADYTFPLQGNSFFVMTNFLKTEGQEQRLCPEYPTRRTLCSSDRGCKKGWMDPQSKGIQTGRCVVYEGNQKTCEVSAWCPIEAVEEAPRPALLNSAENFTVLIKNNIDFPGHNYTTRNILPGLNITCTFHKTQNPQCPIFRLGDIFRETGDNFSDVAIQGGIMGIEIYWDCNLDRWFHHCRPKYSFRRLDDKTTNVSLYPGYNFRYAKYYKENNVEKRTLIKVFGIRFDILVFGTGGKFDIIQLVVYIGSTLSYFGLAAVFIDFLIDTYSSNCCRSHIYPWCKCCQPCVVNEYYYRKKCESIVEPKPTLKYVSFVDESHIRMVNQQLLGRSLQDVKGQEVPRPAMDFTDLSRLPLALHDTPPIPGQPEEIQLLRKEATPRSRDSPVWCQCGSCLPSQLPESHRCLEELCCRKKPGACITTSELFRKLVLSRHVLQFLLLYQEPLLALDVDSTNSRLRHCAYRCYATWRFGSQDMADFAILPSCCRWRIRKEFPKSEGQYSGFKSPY
UniProt Q64663: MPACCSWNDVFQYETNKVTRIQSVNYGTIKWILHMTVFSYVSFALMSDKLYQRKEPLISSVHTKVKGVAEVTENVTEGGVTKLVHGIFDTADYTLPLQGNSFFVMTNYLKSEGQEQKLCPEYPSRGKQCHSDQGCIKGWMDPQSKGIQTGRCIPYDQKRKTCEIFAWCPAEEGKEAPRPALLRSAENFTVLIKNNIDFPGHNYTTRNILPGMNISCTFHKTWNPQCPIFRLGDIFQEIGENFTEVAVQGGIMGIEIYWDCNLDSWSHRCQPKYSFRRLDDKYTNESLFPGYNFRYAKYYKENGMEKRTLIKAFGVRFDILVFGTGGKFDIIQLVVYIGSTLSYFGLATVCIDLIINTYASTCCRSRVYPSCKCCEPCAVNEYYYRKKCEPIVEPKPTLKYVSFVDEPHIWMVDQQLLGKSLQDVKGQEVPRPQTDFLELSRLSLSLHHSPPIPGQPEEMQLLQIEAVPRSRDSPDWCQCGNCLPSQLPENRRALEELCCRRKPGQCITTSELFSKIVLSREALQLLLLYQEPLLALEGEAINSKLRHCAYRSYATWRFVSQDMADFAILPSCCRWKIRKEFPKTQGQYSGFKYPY

[2] = target: rat P2X7 (Rattus norvegicus (Rat), UniProt Q64663); assay: Ca2+ flux (FLIPR) in 1321N1 cells expressing recombinant rat P2X7 channel; format: cell-based; conditions: 250 μM BzATP
Protocol: (§1) (A) Ca^2+ Flux: 1321N1 cells expressing the recombinant human, rat or mouse P2X7 channel was cultured in HyQ DME/(HyClone/Dulbecco's Modified Eagle Medium) high glucose supplemented with 10% Fetal Bovine Serum (FBS) and appropriate selection marker. Cells were seeded at a density of 25000 cells/well (96-well clear bottom black walled plates) in 100 μl volume/well. On the day of the experiment, cell plates were washed with assay buffer, containing (in mM): 130 NaCl, 2 KCl, 1 CaCl2, 1 MgCl2, 10 HEPES, 5 glucose; pH 7.40 and 300 mOs. After the wash, cells were loaded with the Calcium-4 dye (Molecular Device) and incubated in the dark for 60 minutes. Test compounds were prepared at 250× the test concentration in neat DMSO. Intermediate 96-well compound plates were prepared by transferring 1.2 μL of the compound into 300 μL of assay buffer. A further 3× dilution occurred when transferring 50 μL/well of the compound plate to 100 μL/well in the cell plate. Cells were incubated with test compounds and dye for 30 minutes. […] The fluorescence change was measured 180 seconds after adding the agonist.

[3] = target: T1, P2X7; assay: Ca2+ flux (FLIPR) in 1321N1 cells expressing recombinant human P2X7 channel; format: cell-based; conditions: 250 μM BzATP
Protocol: as §1

SMILES | Ki [1] | IC50 [2] | IC50 [3]
O=C1c2nnc(-c3ncccn3)n2CC(C2CC2)N1Cc1cccc(C(F)(F)F)c1Cl (racemic) [Example 64, (±)-7-[2-Chloro-3-(trifluoromethyl)benzyl]-6-cyclopropyl-3-pyrimidin-2-yl-6,7-dihydro[1,2,4]triazolo[4,3-a]pyrazin-8(5H)-one] | 6.3 nM | 4.6 nM | –
O=C1c2nnc(-c3ncccn3)n2C[C@@H](C2CC2)N1Cc1cccc(C(F)(F)F)c1Cl (single isomer, unassigned) [Example 65, (6R*)-7-[2-Chloro-3-(trifluoromethyl)benzyl]-6-cyclopropyl-3-pyrimidin-2-yl-6,7-dihydro[1,2,4]triazolo[4,3-a]pyrazin-8(5H)-one] | 100 nM | 396 nM | –
O=C1c2nnc(-c3ccc(F)cn3)n2CC(C2CC2)N1Cc1cccc(C(F)(F)F)c1Cl (racemic) [Example 69, (±)-7-[2-Chloro-3-(trifluoromethyl)benzyl]-6-cyclopropyl-3-(5-fluoropyridin-2-yl)-6,7-dihydro[1,2,4]triazolo[4,3-a]pyrazin-8(5H)-one] | 31.6 nM | 398 nM | –
C[C@H]1Cn2c(nnc2-c2cncs2)C(=O)N1Cc1cccc(C(F)(F)F)c1Cl [Example 37, (6S)-7-[2-Chloro-3-(trifluoromethyl)benzyl]-6-methyl-3-(1,3-thiazol-5-yl)-6,7-dihydro[1,2,4]triazolo[4,3-a]pyrazin-8(5H)-one] | 2 nM | – | 6.9 nM
O=C1c2nnc(-c3ncccn3)n2C[C@H](C2CC2)N1Cc1cccc(C(F)(F)F)c1Cl (single isomer, unassigned) [Example 66, (6S*)-7-[2-Chloro-3-(trifluoromethyl)benzyl]-6-cyclopropyl-3-pyrimidin-2-yl-6,7-dihydro[1,2,4]triazolo[4,3-a]pyrazin-8(5H)-one] | – | 8.2 nM | –
O=C1c2nnc(-c3cnccn3)n2CCN1Cc1cccc(Cl)c1Cl [Example 2, 7-(2,3-Dichlorobenzyl)-3-pyrazin-2-yl-6,7-dihydro[1,2,4]triazolo[4,3-a]pyrazin-8(5H)-one] | 28.8 nM | – | –
C[C@H]1Cn2c(nnc2C2CCOCC2)C(=O)N1Cc1cccc(C(F)(F)F)c1Cl [Example 53, (6S)-7-[2-Chloro-3-(trifluoromethyl)benzyl]-6-methyl-3-(tetrahydro-2H-pyran-4-yl)-6,7-dihydro[1,2,4]triazolo[4,3-a]pyrazin-8(5H)-one] | – | – | 3870 nM
Cc1ncsc1-c1nnc2n1C[C@H](C)N(Cc1cccc(C(F)(F)F)c1Cl)C2=O [Example 40, (6S)-7-[2-Chloro-3-(trifluoromethyl)benzyl]-6-methyl-3-(4-methyl-1,3-thiazol-5-yl)-6,7-dihydro[1,2,4]triazolo[4,3-a]pyrazin-8(5H)-one] | 20 nM | 1300 nM | –
C[C@H]1Cn2c(nnc2-c2cnccn2)C(=O)N1Cc1ccc(F)cc1Cl [Example 78, (6S)-7-(2-Chloro-4-fluorobenzyl)-6-methyl-3-pyrazin-2-yl-6,7-dihydro[1,2,4]triazolo[4,3-a]pyrazin-8(5H)-one] | 15.8 nM | – | –
C[C@H]1Cn2c(nnc2C2CCN(C(=O)OC(C)(C)C)C2)C(=O)N1Cc1cccc(C(F)(F)F)c1Cl (stereo partly drawn) [Example 58, (6S)-tert-Butyl3-{7-[2-chloro-3-(trifluoromethyl)benzyl]-6-methyl-8-oxo-5,6,7,8-tetrahydro[1,2,4]triazolo[4,3-a]pyrazin-3-yl}pyrrolidine-1-carboxylate] | 398 nM | 24700 nM | –
C[C@H]1Cn2c(nnc2-c2cccc(C(F)(F)F)n2)C(=O)N1Cc1cccc(C(F)(F)F)c1Cl [Example 55, (6S)-7-[2-Chloro-3-(trifluoromethyl)benzyl]-6-methyl-3-[6-(trifluoromethyl)pyridin-2-yl]-6,7-dihydro[1,2,4]triazolo[4,3-a]pyrazin-8(5H)-one] | 501 nM | – | –
O=C1c2nnc(-c3cnccn3)n2CCN1Cc1cccc(F)c1F [Example 6, 7-(2,3-Difluorobenzyl)-3-pyrazin-2-yl-6,7-dihydro[1,2,4]triazolo[4,3-a]pyrazin-8(5H)-one] | – | – | 3450 nM
C[C@H]1Cn2c(nnc2-c2cnccn2)C(=O)N1Cc1ccccc1 [Example 79, (6S)-7-Benzyl-6-methyl-3-pyrazin-2-yl-6,7-dihydro[1,2,4]triazolo[4,3-a]pyrazin-8(5H)-one] | – | – | 9620 nM
C[C@H]1Cn2c(nnc2-c2cnccn2)C(=O)N1Cc1c(Cl)cccc1Cl [Example 86, (6S)-7-(2,6-Dichlorobenzyl)-6-methyl-3-pyrazin-2-yl-6,7-dihydro[1,2,4]triazolo[4,3-a]pyrazin-8(5H)-one] | – | – | 97.1 nM
C[C@H]1Cn2c(nnc2-c2cnn(C)c2)C(=O)N1Cc1cccc(C(F)(F)F)c1Cl [Example 24, (6S)-7-[2-Chloro-3-(trifluoromethyl)benzyl]-6-methyl-3-(1-methyl-1H-pyrazol-4-yl)-6,7-dihydro[1,2,4]triazolo[4,3-a]pyrazin-8(5H)-one] | 25.1 nM | – | –
C[C@H]1Cn2c(nnc2-c2cnccn2)C(=O)N1Cc1ccc(Cl)cc1S(C)(=O)=O [Example 82, (6S)-7-[4-Chloro-2-(methylsulfonyl)benzyl]-6-methyl-3-pyrazin-2-yl-6,7-dihydro[1,2,4]triazolo[4,3-a]pyrazin-8(5H)-one] | 63.1 nM | – | –
C[C@H]1Cn2c(nnc2-c2ccon2)C(=O)N1Cc1cccc(C(F)(F)F)c1Cl [Example 41, (6S)-7-[2-Chloro-3-(trifluoromethyl)benzyl]-3-isoxazol-3-yl-6-methyl-6,7-dihydro[1,2,4]triazolo[4,3-a]pyrazin-8(5H)-one] | 12.6 nM | – | –
Cc1c(CN2C(=O)c3nnc(-c4cnccn4)n3C[C@@H]2C)cccc1C(F)(F)F [Example 85, (6S)-6-Methyl-7-[2-methyl-3-(trifluoromethyl)benzyl]-3-pyrazin-2-yl-6,7-dihydro[1,2,4]triazolo[4,3-a]pyrazin-8(5H)-one] | 5 nM | – | –
C[C@H]1Cn2c(nnc2C2CCCN(C(=O)OC(C)(C)C)C2)C(=O)N1Cc1cccc(C(F)(F)F)c1Cl (stereo partly drawn) [Example 59, (6S)-tert-Butyl3-{7-[2-chloro-3-(trifluoromethyl)benzyl]-6-methyl-8-oxo-5,6,7,8-tetrahydro[1,2,4]triazolo[4,3-a]pyrazin-3-yl}piperidine-1-carboxylate] | – | – | 1790 nM
O=C1c2nnc(-c3cnccn3)n2CC(C2CC2)N1Cc1cccc(C(F)(F)F)c1Cl (racemic) [Example 61, (±)-7-[2-Chloro-3-(trifluoromethyl)benzyl]-6-cyclopropyl-3-pyrazin-2-yl-6,7-dihydro[1,2,4]triazolo[4,3-a]pyrazin-8(5H)-one] | 7.9 nM | – | –
C[C@H]1Cn2c(nnc2-c2cnccn2)C(=O)N1Cc1ccccc1Cl [Example 80, (6S)-7-(2-Chlorobenzyl)-6-methyl-3-pyrazin-2-yl-6,7-dihydro[1,2,4]triazolo[4,3-a]pyrazin-8(5H)-one] | – | – | 248 nM
Cc1nc(-c2nnc3n2C[C@H](C)N(Cc2cccc(C(F)(F)F)c2Cl)C3=O)cs1 [Example 36, (6S)-7-[2-Chloro-3-(trifluoromethyl)benzyl]-6-methyl-3-(2-methyl-1,3-thiazol-4-yl)-6,7-dihydro[1,2,4]triazolo[4,3-a]pyrazin-8(5H)-one] | 25.1 nM | – | 8.2 nM
C[C@H]1Cn2c(nnc2-c2ccncc2)C(=O)N1Cc1cccc(C(F)(F)F)c1Cl [Example 47, (6S)-7-[2-Chloro-3-(trifluoromethyl)benzyl]-6-methyl-3-pyridin-4-yl-6,7-dihydro[1,2,4]triazolo[4,3-a]pyrazin-8(5H)-one] | 15.8 nM | – | 9.3 nM
C[C@H]1Cn2c(nnc2-c2ccncn2)C(=O)N1Cc1cccc(C(F)(F)F)c1Cl [Example 33, (6S)-7-[2-Chloro-3-(trifluoromethyl)benzyl]-6-methyl-3-pyrimidin-4-yl-6,7-dihydro[1,2,4]triazolo[4,3-a]pyrazin-8(5H)-one] | 5 nM | – | –
C[C@H]1Cn2c(nnc2-c2cc[nH]n2)C(=O)N1Cc1cccc(C(F)(F)F)c1Cl [Example 28, (6S)-7-[2-Chloro-3-(trifluoromethyl)benzyl]-6-methyl-3-(1H-pyrazol-3-yl)-6,7-dihydro[1,2,4]triazolo[4,3-a]pyrazin-8(5H)-one] | 3.2 nM | – | –
C[C@H]1Cn2c(nnc2-c2ccc(Cl)cn2)C(=O)N1Cc1cccc(C(F)(F)F)c1Cl [Example 56, (6S)-3-(5-Chloropyridin-2-yl)-7-[2-chloro-3-(trifluoromethyl)benzyl]-6-methyl-6,7-dihydro[1,2,4]triazolo[4,3-a]pyrazin-8(5H)-one] | 6.3 nM | – | –
Cc1cncc(-c2nnc3n2C[C@H](C)N(Cc2cccc(C(F)(F)F)c2Cl)C3=O)c1 [Example 57, (6S)-7-[2-Chloro-3-(trifluoromethyl)benzyl]-6-methyl-3-(5-methylpyridin-3-yl)-6,7-dihydro[1,2,4]triazolo[4,3-a]pyrazin-8(5H)-one] | 50.1 nM | – | 219 nM

From patent publication US9040534B2 (Janssen Pharmaceutica NV, priority 2013, dated 2015)
